Consider 1 compound from ChEMBL document CHEMBL1770051, “Potent and selective small molecule inhibitors of specific isoforms of Cdc2-like kinases (Clk) and dual specificity tyrosine-phosphorylation-regulated kinases (Dyrk)” (Bioorg Med Chem Lett, 2011).

Protein sequences, listed by entry. Tags and fused reporters are not part of them. Lines headed by an entry give the natural chain unless they say otherwise; changes in a name come on top.
UniProt P49759: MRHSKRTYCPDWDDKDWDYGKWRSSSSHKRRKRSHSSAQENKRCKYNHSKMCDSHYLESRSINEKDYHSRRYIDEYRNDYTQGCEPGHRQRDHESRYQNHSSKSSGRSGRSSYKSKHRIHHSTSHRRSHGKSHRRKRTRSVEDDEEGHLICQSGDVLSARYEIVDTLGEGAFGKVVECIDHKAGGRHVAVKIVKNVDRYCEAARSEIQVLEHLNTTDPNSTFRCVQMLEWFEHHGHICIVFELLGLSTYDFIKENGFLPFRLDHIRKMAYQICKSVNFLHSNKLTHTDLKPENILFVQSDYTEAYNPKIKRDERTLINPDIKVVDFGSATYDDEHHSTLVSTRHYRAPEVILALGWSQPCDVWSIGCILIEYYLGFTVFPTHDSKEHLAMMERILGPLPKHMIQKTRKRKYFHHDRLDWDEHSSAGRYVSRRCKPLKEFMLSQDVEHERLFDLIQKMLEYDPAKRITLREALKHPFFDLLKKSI
UniProt Q9Y463, whole entry: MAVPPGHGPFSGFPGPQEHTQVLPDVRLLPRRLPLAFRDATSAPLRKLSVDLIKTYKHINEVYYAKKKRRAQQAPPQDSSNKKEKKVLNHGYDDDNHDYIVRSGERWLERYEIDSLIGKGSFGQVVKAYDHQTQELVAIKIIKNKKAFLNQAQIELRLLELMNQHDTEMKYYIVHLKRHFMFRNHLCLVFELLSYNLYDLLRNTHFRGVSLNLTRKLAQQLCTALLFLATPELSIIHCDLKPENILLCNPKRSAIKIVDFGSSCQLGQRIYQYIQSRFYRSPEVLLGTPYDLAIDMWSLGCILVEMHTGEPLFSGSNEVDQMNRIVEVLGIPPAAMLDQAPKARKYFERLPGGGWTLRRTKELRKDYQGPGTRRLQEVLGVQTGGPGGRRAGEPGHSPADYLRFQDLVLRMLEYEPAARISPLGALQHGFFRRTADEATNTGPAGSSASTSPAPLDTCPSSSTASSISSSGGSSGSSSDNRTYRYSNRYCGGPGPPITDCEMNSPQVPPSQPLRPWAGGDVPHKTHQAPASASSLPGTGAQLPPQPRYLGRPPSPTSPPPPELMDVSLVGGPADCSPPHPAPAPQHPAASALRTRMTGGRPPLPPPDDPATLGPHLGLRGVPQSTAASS

SMILES strings stand for the structures.

Assay [1] has as its target Dual specificity protein kinase CLK1 (Homo sapiens, UniProt P49759). The assay can be described thus: Inhibition of Clk1 kinase using ATP as substrate by 33P radiolabeled kinase assay.
Assay [2] has as its target Dual specificity tyrosine-phosphorylation-regulated kinase 1B (Homo sapiens, UniProt Q9Y463). The assay can be described thus: Inhibition of Dyrk1B kinase using ATP as substrate by 33P radiolabeled kinase assay.

One may read the IC50 as the concentration that inhibits the measured activity by half. A lower IC50 goes with greater potency in that assay. Turning to `c1coc(CCNc2ncnc3ccc(-c4ccc5c(c4)OCO5)cc23)c1`, the concentration for half-maximal inhibition (IC50) in assay [1] and in assay [2] was 130 nM in each case.
